Data on five molecules can be found in PubChem BioAssay AID651550 (National Center for Advancing Translational Sciences (NCATS), 2012).

The structures appear in SMILES notation. The entries are a selection whose mix differs from that of the whole data set. The source made the active and inactive calls. Cut-off read from the data, not from the text of the source: active = activity change below about -80%; inconclusive = mostly about -51% to -80%; inactive = weaker than that.
% is set by controls: 0 for no effect and ±100 for the full control effect.

In the assay the target is RAC-alpha serine/threonine-protein kinase (Homo sapiens) (UniProt P31749). The assay can be described thus: HTS Assay for Inhibitors of Akt Phophorylation: Primary Screen. The note with it: Neuro2A IGF-stimulated pAkt S473 HTRF, 20 min; at 50 µM; stronger effect = lower value. From the text: The serine/threonine protein kinase Akt (protein kinase B) regulates various cellular processes, including cell survival, growth, proliferation, migration and differentiation. It has been well established that Akt is activated through two essential steps involving membrane translocation and phosphorylation. Cytosolic Akt is recruited to the plasma membrane via the interaction between the PH domain and membrane PIP3 produced by phosphoinositide-3 kinase (PI3K) upon growth factor receptor stimulation. The membrane-Akt interaction results in conformational changes of Akt, enabling its activation through phosphorylation at T308 in the kinase domain and at S473 in the C-terminal hydrophobic motif by PDK1 and mTOR-rictor complex (mTORC2), respectively. […] These findings indicate that S473 phosphorylation, as an important modulator of Akt activation, may be a valuable drug target for cell growth, survival, proliferation and differentiation. These inhibitors also may have significant therapeutic potential with fewer side effects, especially for the conditions involving hyperactive Akt signaling, such as cancer and Alzheimer's disease.
To this end, a miniaturized assay was developed to be screened against the Molecular Libraries Small Molecule Repository (MLSMR).
NIH Chemical Genomics Center [NCGC]
NIH Molecular Libraries Probe Centers Network [MLPCN]
Assay Submitter (PI): Hee-Yong Kim, National Institute on Alcohol Abuse and Alcoholism
3 uL of Neuro2A cell suspension in DMEM containing 0.5% FBS and […] antibiotics mix was plated in a white solid bottom tissue culture-treated 1536-well plate (Greiner Bio-One, Monroe, NC) at 4,500 cells per well and incubated overnight at 37 deg C. 23 nL/well of compound solutions in DMSO was added with Pintool transfer (Kalypsis, San Diego, CA) at single […] final concentration. Then, the cells were stimulated with 1.5 uL of IGF (6 nM final concentration) and incubated at 37 deg C for 20 min. The reaction was terminated by the addition of 1.5 uL blocking reagent mixed with lysis buffer (1:25 correspondingly) provided with HTRF(R) Phospho Akt (Ser473) kit (Cisbio US, Bedford, MA), with following incubation for 50 min at ambient temperature. The detection HTRF conjugates from the kit were prepared according to the protocol, pre-mixed 1:1 prior to dispensing, and 2 uL/well was added with BioRAPTR FRD dispenser (Beckman Coulter). The assay plates were incubated for 24 hours at ambient temperature, and the HTRF fluorescence was measured using Envision plate reader (PerkinElmer) with excitation at 330nm, emission at 615nm (Eu(3)-Cryptate donor signal) and 665nm (d2 acceptor signal). The ratio of […] was calculated for each well.
Background: TR-FRET usually uses a lanthanide donor and a delayed reading to cut background.
On to `CCC(CO)(C(=O)OC1CN2CCC1CC2)c1ccccc1` (stereo not given), for which the activity change was inactive: -2.03%. `N/C(=N\O)c1c(N)no[n+]1[O-]`: the activity change is inactive: 2.29%.

Consider `N#CC1(Nc2ccccc2)CCN(CCc2ccccc2)CC1`, for which the activity change is inactive: 20.5%. The result for `O=C(NCC1(N2CCOCC2)CCCCC1)c1cc(=O)[nH]c2ccccc12` reads inactive: -1.47%; that for `O=C(NCC1(N2CCOCC2)CCCCC1)c1cc2ccccc2o1`, inactive: -1.13%.
